{"source": "patent US5788964A", "about": "“Method for sensitization of cancer cells for killer cell mediated lysis” (Orion-Yhtyma Oy, priority 1996, dated 1998)", "origin": "cited, not measured here", "tested_on": "NK and LAK cells", "conditions": "2×10^6 Japan reference units s.c. initially, halved each consecutive day for 6 days; cited from earlier work", "data": [{"substance": "IL-2: Cytokines, such as interleukin-2 (IL-2)", "values": [{"measurement": "activation of NK and LAK cells", "value": "significant activation of NK and LAK cells"}]}]}
